Molecular target: T1, Peptide deformylase (Escherichia coli, UniProt Q9JN24)
T1 sequence (Q9JN24 whole entry): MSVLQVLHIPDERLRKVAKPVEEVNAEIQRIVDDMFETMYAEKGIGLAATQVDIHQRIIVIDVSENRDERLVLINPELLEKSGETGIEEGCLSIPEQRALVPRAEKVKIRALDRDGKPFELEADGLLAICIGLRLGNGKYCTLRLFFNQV
Assay: Inhibition concentration against Escherichia coli peptide deformylase.

Structure (SMILES)	IC50 [µM]
CCCC[C@H](CN(O)C=O)C(=O)N[C@H](C(=O)N1CCCC2CCCCC21)C(C)(C)C (some centres not stated)	0.04
CCCC[C@H](CN(O)C=O)C(=O)N[C@@H](Cc1ccccc1)C(=O)N(C)C	0.01
